Values quoted from earlier work as cited in article PMC9959096, “Selective α3β4 Nicotinic Acetylcholine Receptor Ligand as a Potential Tracer for Drug Addiction” (International Journal of Molecular Sciences, 2023).
Read-outs that look alike come from different tables or passages of the source.

Amino acid sequences for entries named in this document (tags omitted). Residues count along the entry.
UniProt P30926, 22-498: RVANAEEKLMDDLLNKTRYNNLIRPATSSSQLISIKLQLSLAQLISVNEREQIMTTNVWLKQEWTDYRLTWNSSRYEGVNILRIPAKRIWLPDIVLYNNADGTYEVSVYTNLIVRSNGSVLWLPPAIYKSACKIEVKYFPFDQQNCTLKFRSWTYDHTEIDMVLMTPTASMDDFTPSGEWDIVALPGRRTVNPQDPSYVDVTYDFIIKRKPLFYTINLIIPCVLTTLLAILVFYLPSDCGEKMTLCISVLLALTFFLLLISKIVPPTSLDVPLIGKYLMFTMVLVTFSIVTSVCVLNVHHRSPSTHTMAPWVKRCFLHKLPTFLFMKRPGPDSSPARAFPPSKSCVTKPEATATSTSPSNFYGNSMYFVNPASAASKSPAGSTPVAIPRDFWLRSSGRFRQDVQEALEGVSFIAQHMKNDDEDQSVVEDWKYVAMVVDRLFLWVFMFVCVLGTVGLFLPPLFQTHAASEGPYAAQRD
UniProt P32297, 32-505: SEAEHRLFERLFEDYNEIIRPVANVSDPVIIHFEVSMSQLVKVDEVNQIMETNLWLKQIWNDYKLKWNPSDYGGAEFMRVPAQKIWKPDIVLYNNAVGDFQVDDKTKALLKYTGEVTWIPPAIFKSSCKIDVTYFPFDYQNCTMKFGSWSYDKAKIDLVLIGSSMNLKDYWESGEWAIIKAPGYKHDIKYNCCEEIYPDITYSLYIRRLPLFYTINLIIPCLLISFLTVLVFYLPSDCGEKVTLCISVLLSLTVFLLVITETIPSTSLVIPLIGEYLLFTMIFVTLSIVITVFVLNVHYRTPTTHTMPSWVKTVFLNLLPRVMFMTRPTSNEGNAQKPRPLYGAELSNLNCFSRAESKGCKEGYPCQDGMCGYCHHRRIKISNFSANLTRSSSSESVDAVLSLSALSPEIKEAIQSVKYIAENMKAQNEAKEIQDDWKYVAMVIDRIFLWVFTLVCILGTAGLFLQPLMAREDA

Target: T1, human α3β4 nAChR (Homo sapiens, UniProt P30926+P32297)
T1 construct: expressed in transfected cells
Conditions: cited from earlier work

In the case of CN1C2CCCC1CC(Nc1ccccc1Br)C2 (centres unmarked) [AT-1001], the Ki (lead/reference compounds, read-out: Binding Affinity Ki α3β4) is given as 2.6 nM and the Ki (selective α3β4 nAChR ligands, read-out: Ki) is given as under 10 nM.
